Measurements: US20220280527A1, “TRACE AMINE ASSOCIATED RECEPTOR 1 AGONISTS AND PARTIAL AGONISTS FOR PAIN TREATMENT” (Purdue Pharma L.P., priority 2016, published 2022)

By UniProt entry, the sequences of proteins in these tests, tags left out. Where a name states a change or a piece, a line headed by the entry shows the natural chain unless it says otherwise.
UniProt Q96RJ0: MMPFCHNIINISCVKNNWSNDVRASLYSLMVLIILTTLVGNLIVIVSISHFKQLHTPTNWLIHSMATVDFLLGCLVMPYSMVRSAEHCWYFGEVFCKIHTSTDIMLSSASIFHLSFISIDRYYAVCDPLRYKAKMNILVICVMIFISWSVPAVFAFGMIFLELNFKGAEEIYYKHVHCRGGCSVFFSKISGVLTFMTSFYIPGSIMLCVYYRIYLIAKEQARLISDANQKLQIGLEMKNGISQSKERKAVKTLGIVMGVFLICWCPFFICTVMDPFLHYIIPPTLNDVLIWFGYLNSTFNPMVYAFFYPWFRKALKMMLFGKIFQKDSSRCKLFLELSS

Target: hTAAR1 (Homo sapiens, UniProt Q96RJ0)
Test: hTAAR1 functional assay (cAMP)
Assay type: cell-based
Conditions: read-out: hTAAR1 EC50 (mean ± SEM (n))

## NC1=N[C@@H](c2ccc(Cl)c(Cl)c2)CO1
  EC50: 83.4 nM
